Results published in publication PMC12459184, “Design, synthesis, and bioevaluation of pyrazole-containing tubulin polymerisation inhibitors based on conformational constraint strategy” (Journal of Enzyme Inhibition and Medicinal Chemistry, 2025).

Tests used:
tubulin = test: In vitro tubulin polymerisation assay; format: biochemical; conditions: 3 μM
Procedure: To investigate the effect of compounds 4k and 5a on microtubule system, their tubulin polymerisation inhibition activities were evaluated using in vitro tubulin polymerisation assay.
The BK001 kit used in this test was purchased from Cytoskeleton Inc. (Denver, CO, USA). […] Then the mixtures were transferred to 37 °C and tubulin assembly was monitored (excitation wavelength: 360 nm; emission wavelength: 420 nm) at 1 min intervals for 90 min by a microplate reader.

[1] = tested on: human umbilical vein endothelial cells (HUVEC); test: MTT toxicity assay, normal cells HUVEC; format: cell-based; conditions: SI-H = IC50 (HUVEC)/IC50 (PC-3)
Procedure: (§1) The toxicity of compounds 4k and 5a was also tested by using human umbilical vein endothelial cells (HUVEC) and human liver cells (L02).
(§2) Cells grown in logarithmic phase were harvested and seeded onto 96-well cell plates at a density of 4 ∼ 5 × 10^3 cells per well (various from cell type) and were cultured for 24 h. Different concentrations of compounds were added into the wells, and the cells were cultured for another 72 h. The medium was removed, then 20 μL of MTT (5 mg/mL in PBS) was added to each well and the cells were incubated for 4 h. 150 μL of DMSO was added to each well to dissolve the formazan, and the absorbance at 490 nm of each well was measured by a microplate reader. IC50 values were calculated by SPSS software.

human liver cells (L02) = test: MTT toxicity assay, normal cells L02; format: cell-based; conditions: SI-L = IC50 (L02)/IC50 (PC-3)
Procedure: as §1, §2

COc1cc2c(c(OC)c1OC)-c1ccc(OC)c(=O)cc1[C@@H](NC(C)=O)CC2 [Colchicine, reference compound]
effect on tubulin polymerisation (fluorescence intensity) (tubulin): inhibition of tubulin polymerisation
SI-H [1]: 13.95
SI-L (human liver cells (L02)): 0.797
